{"source": "patent US11541120B2", "about": "“Phosphonium-based ionic drug conjugates” (Anthos Partners, LP, priority 2017, dated 2023)", "key": {"Caco-2": {"system": "Caco-2", "test": "Caco-2 cell permeability", "conditions": "No Inhibitor"}, "[1]": {"test": "Partition coefficient octanol/PBS (LogD7.4)", "format": "physicochemical", "conditions": "100 μM in PBS shaken with octanol"}, "[2]": {"test": "Water solubility of PBICs", "conditions": "MitoQ conjugate of the drug"}}, "data": [{"compound": "COC1=C(OC)C(=O)C(CCCCCCCCCC[P+](c2ccccc2)(c2ccccc2)c2ccccc2)=C(C)C1=O.O=C([O-])Cc1ccccc1Nc1c(Cl)cccc1Cl", "note": "[Diclofenac-MitoQ, Diclofenac-MitoQ conjugate]", "values": [{"measurement": "Mean (B-A/A-B) Efflux Ratio", "setting": "Caco-2", "value": 0.0618}, {"measurement": "Mean Papp A-B", "setting": "Caco-2", "value": "34.7 10^−6 cm/s"}, {"measurement": "Mean Papp B-A", "setting": "Caco-2", "value": "2.14 10^−6 cm/s"}, {"measurement": "(Conc. in octanol)/(Conc. in PBS)", "setting": "[1]", "value": 8.53}, {"measurement": "LogD7.4", "setting": "[1]", "value": 0.93}, {"measurement": "Water solubility, MitoQ Conjugate", "setting": "[2]", "value": "insoluble"}]}]}
